The nature of this series: In vitro metabolism test using liver microsomes (Ms). Particulars: liver microsomes 1.0 mg/mL, substrate 5.0 μM, NADPH 1.0 mM, 37° C., pH 7.4.
Turning to `Cc1ccc2c(c1)c(Cn1c(SCCCC(=O)O)nc3ccccc31)cn2C`, the “MR (metabolic rate at its maximum)” value was determined as 0.329 nmol/min./mg protein. For `Cc1cc2nc(SCCCC(=O)O)n(Cc3csc4ccc(Cl)cc34)c2cc1C` the value was 0.102 nmol/min./mg protein; for `Cc1cc2nc(SCCCC(=O)O)n(Cc3cn(C)c4cccc(Cl)c34)c2cc1C`, 0.088 nmol/min./mg protein; for `Cn1cc(Cn2c(SCCCC(=O)O)nc3ccccc32)c2c(Cl)cccc21`, 0.129 nmol/min./mg protein. For `Cc1cccc2c1c(Cn1c(SCCCC(=O)O)nc3cc(Cl)c(Cl)cc31)cn2C` the value was 0.159 nmol/min./mg protein; for `Cc1cccc2scc(Cn3c(SCCCC(=O)O)nc4ccccc43)c12`, 0.048 nmol/min./mg protein.

The record behind these values is patent US7176320B2, “Benzimidazole derivative” (Teijin Limited, priority 2000, dated 2007).
